# Values of other authors, collected in PMC10343800, “A Novel LSTM-Based Machine Learning Model for Predicting the Activity of Food Protein-Derived Antihypertensive Peptides” (Molecules, 2023).
# By UniProt entry, the sequences of proteins in these tests, tags left out. Residues count along the entry.
# UniProt P12821, 30-1306 limits assumed: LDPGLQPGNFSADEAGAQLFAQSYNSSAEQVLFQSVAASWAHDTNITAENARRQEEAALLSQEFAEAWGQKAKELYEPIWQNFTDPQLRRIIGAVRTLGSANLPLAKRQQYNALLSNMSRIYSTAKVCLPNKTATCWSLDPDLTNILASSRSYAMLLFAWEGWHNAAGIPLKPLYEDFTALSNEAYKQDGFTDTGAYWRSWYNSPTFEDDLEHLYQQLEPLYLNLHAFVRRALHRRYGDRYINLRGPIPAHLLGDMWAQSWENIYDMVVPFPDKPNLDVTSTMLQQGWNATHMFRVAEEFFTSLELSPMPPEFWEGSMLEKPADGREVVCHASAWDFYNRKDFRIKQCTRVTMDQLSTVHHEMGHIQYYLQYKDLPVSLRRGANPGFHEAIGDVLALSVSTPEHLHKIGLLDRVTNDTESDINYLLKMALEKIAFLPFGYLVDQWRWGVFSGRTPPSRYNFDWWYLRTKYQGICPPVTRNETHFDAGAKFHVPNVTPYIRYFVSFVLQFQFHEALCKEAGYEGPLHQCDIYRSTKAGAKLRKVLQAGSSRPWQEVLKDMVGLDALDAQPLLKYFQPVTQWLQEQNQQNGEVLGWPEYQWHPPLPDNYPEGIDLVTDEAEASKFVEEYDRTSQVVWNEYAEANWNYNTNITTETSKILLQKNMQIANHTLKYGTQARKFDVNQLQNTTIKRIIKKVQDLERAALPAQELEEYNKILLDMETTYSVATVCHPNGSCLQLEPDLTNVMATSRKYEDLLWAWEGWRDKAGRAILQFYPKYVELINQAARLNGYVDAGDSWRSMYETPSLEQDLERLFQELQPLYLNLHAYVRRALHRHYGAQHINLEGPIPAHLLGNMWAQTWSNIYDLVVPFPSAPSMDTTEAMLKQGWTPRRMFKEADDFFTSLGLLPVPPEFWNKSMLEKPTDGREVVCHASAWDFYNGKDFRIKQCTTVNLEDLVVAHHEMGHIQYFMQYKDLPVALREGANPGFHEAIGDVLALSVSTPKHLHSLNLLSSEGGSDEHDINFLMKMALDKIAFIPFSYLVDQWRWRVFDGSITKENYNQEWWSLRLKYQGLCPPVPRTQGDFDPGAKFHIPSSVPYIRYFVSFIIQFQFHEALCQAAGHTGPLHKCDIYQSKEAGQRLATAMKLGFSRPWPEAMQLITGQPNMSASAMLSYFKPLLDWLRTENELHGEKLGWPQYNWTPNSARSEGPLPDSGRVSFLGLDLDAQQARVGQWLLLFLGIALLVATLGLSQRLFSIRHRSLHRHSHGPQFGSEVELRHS
# Target: ACE (Homo sapiens, UniProt P12821)
# Conditions: read-out: Reported IC50; in vitro ACE inhibition; cited from earlier work
row,Structure (SMILES),IC50 [µM]
1,NCC(=O)N[C@@H](Cc1ccccc1)C(=O)O,278
2,CC[C@H](C)[C@H](N)C(=O)N[C@@H](Cc1ccc(O)cc1)C(=O)O,2.7
3,CC(C)C[C@H](N)C(=O)N[C@@H](CCCCN)C(=O)N1CCC[C@H]1C(=O)O,2.93
4,C[C@H](N)C(=O)N[C@@H](Cc1ccc(O)cc1)C(=O)O,147
5,N[C@@H](Cc1ccccc1)C(=O)N[C@@H](Cc1ccc(O)cc1)C(=O)O,3.7
6,NCCCC[C@H](N)C(=O)N[C@@H](Cc1c[nH]c2ccccc12)C(=O)O,10.8
7,CC(C)C[C@H](N)C(=O)N[C@H](C(=O)O)[C@@H](C)O,1.11
8,N[C@@H](Cc1ccc(O)cc1)C(=O)N[C@@H](Cc1ccc(O)cc1)C(=O)O,47.9
9,NCCCC[C@H](N)C(=O)N[C@@H](Cc1ccccc1)C(=O)O,28.3
